Drawing on patent publication US7799791B2, “Tetrahydrofuro(3,2-B) pyrrol-3-one derivatives as inhibitors of cysteine proteinases” (Amura Therapeutics Limited, priority 2007, dated 2010), this text covers Ki for 39 molecules.

Amino acid sequences for entries named in this document (tags omitted). Residues count along the entry.
UniProt P43235, 115-329 limits assumed: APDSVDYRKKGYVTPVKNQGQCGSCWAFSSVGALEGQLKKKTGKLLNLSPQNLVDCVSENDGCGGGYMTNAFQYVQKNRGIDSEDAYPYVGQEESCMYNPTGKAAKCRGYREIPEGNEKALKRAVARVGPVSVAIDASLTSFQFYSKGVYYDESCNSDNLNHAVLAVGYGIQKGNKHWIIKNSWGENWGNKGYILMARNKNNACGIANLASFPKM

What is called Ki is a measure of affinity in units of concentration, obtained from inhibition or displacement.

This test addresses Human recombinant cathepsin K (Homo sapiens, UniProt P43235). Kind of test: In vitro cathepsin Ki inhibition measurements. The format is biochemical. The note with it: read-out: Ki (nM) vs Human Cathepsin K, prior art WO-A-02057270 examples, Table 2.
On to `CC(C)(C)C[C@H](NC(=O)c1ccsc1)C(=O)N1CC[C@H]2OCC(=O)[C@H]21`, for which the inhibitory constant (Ki) was more than 250 nM.
Under `O=C(N[C@@H](CSCc1ccccc1)C(=O)N1CC[C@H]2OCC(=O)[C@H]21)c1ccsc1` stands more than 2000 nM.
Under `O=C(Cc1ccccc1)N[C@@H](Cc1ccccc1)C(=O)N1CC[C@H]2OCC(=O)[C@H]21` stands more than 8500 nM; under `Cc1ccc(C(=O)N[C@@H](CC(C)C)C(=O)N2CC[C@H]3OCC(=O)[C@H]32)cc1`, more than 200 nM.
With `O=C(N[C@@H](CSCc1ccccc1)C(=O)N1CC[C@H]2OCC(=O)[C@H]21)c1cccc2ccccc12`, the inhibition constant Ki is more than 20000 nM.
Then `CC(C)C[C@H](SCc1ccc(C(C)(C)C)cc1)C(=O)N1CC[C@H]2OCC(=O)[C@H]21`, with more than 50000 nM; and `COc1ccc(C(=O)N[C@@H](CC(C)C)C(=O)N2CC[C@H]3OCC(=O)[C@H]32)cc1`, with more than 150 nM.
Under `O=C1CO[C@@H]2CCN(C(=O)C(CC3CCCCC3)OCc3ccccc3)[C@H]12` (stereo partly drawn) stands more than 67000 nM; under `O=C(N[C@@H](Cc1ccc(O)cc1)C(=O)N1CC[C@H]2OCC(=O)[C@H]21)c1ccoc1`, more than 20000 nM.
Then `O=C(N[C@@H](CC1CCCCC1)C(=O)N1CC[C@H]2OCC(=O)[C@H]21)c1cc2ccccc2s1`, with more than 2000 nM; and `O=C(N[C@@H](Cc1cccc(O)c1)C(=O)N1CC[C@H]2OCC(=O)[C@H]21)c1ccc(-c2cccs2)cc1`, with more than 20000 nM; and `O=C(Cc1ccccc1)N[C@@H](CC1CCCCC1)C(=O)N1CC[C@H]2OCC(=O)[C@H]21`, with more than 40000 nM.
Regarding `O=C1CO[C@@H]2CCN(C(=O)[C@H](CSCc3ccccc3)NC(=O)N3CCOCC3)[C@H]12`, the inhibitory constant (Ki) is more than 32000 nM.
Under `CC(C)C[C@H](NC(=O)CCc1ccccc1)C(=O)N1CC[C@H]2OCC(=O)[C@H]21` stands more than 2000 nM.
For the molecule `O=C(N[C@@H](CSCc1ccccc1)C(=O)N1CC[C@H]2OCC(=O)[C@H]21)c1cc2ccccc2s1`, the Ki was more than 2500 nM.
Under `O=C1CO[C@@H]2CCN(C(=O)[C@H](CC3CCCCC3)S(=O)(=O)Cc3ccco3)[C@H]12` stands more than 10000 nM.
`O=C(N[C@@H](CSCc1ccccc1)C(=O)N1CC[C@H]2OCC(=O)[C@H]21)c1ccccc1`: the Ki is more than 3500 nM.
Then `CC(C)C[C@H](NC(=O)Cc1ccccc1)C(=O)N1CC[C@H]2OCC(=O)[C@H]21`, with more than 1500 nM.
On to `O=C(N[C@@H](Cc1ccc(O)cc1)C(=O)N1CC[C@H]2OCC(=O)[C@H]21)c1ccc(OC(F)(F)F)cc1`, for which the Ki was more than 15000 nM.
Under `CC(C)(C)c1ccc(C(=O)N[C@@H](Cc2ccc(Br)cc2)C(=O)N2CC[C@H]3OCC(=O)[C@H]32)cc1` stands more than 50000 nM; under `O=C(CCc1ccccc1)N[C@@H](Cc1ccc(O)cc1)C(=O)N1CC[C@H]2OCC(=O)[C@H]21`, more than 23000 nM.
For the molecule `COc1ccc(C[C@H](NC(=O)c2ccc(C(C)(C)C)cc2)C(=O)N2CC[C@H]3OCC(=O)[C@H]32)cc1`, the inhibitory constant (Ki) is more than 50000 nM.
For `O=C(CCc1ccccc1)N[C@@H](Cc1ccccc1)C(=O)N1CC[C@H]2OCC(=O)[C@H]21`, the inhibition constant (Ki) is more than 10000 nM.
`O=C(N[C@@H](Cc1ccccc1)C(=O)N1CC[C@H]2OCC(=O)[C@H]21)c1cccc2ccccc12`: the Ki was more than 35000 nM.
Under `O=C(N[C@@H](CC1CCCCC1)C(=O)N1CC[C@H]2OCC(=O)[C@H]21)c1ccsc1` stands more than 2000 nM.
Under `O=C(N[C@@H](Cc1ccc(O)cc1)C(=O)N1CC[C@H]2OCC(=O)[C@H]21)c1ccc(-c2cccs2)cc1` stands more than 20000 nM.
Under `O=C(Cc1ccccc1)N[C@@H](CSCc1ccccc1)C(=O)N1CC[C@H]2OCC(=O)[C@H]21` stands more than 25000 nM; under `CC(C)CC(C(=O)N1CC[C@H]2OCC(=O)[C@H]21)c1cccc(-c2ccccc2)c1` (stereo partly drawn), more than 2000 nM; under `O=C(N[C@@H](CSCc1ccccc1)C(=O)N1CC[C@H]2OCC(=O)[C@H]21)c1ccoc1`, more than 6500 nM.
Turning to `CC(C)C[C@H](NC(=O)c1cccc2ccccc12)C(=O)N1CC[C@H]2OCC(=O)[C@H]21`, the Ki is more than 2500 nM.
Then `O=C1CO[C@@H]2CCN(C(=O)[C@@H](CC(=O)N3CCOCC3)CC3CCCCC3)[C@H]12`, with more than 100000 nM.
Under `O=C1CO[C@@H]2CCN(C(=O)[C@H](CC3CCCCC3)OC(=O)N3CCOCC3)[C@H]12` stands more than 40000 nM; under `O=C(N[C@@H](CC1CCCCC1)C(=O)N1CC[C@H]2OCC(=O)[C@H]21)c1cccc2ccccc12`, more than 20000 nM; under `O=C(Cc1ccccc1)N[C@@H](Cc1ccc(O)cc1)C(=O)N1CC[C@H]2OCC(=O)[C@H]21`, more than 45000 nM.
Regarding `O=C1CO[C@@H]2CCN(C(=O)[C@H](Cc3ccccc3)NC(=O)N3CCOCC3)[C@H]12`, the Ki is more than 36000 nM.
Under `O=C1CO[C@@H]2CCN(C(=O)[C@H](CC3CCCCC3)NC(=O)N3CCOCC3)[C@H]12` stands more than 16000 nM; under `O=C(N[C@@H](Cc1ccc(O)cc1)C(=O)N1CC[C@H]2OCC(=O)[C@H]21)c1cc2ccccc2s1`, more than 8000 nM.
Consider `O=C(N[C@@H](CC1CCCCC1)C(=O)N1CC[C@H]2OCC(=O)[C@H]21)c1ccccc1`, for which the inhibitory constant (Ki) is more than 4000 nM.
Consider `O=C1CO[C@@H]2CCN(C(=O)[C@H](Cc3ccc(O)cc3)NC(=O)N3CCOCC3)[C@H]12`, for which the Ki is more than 100000 nM.
